Reference: patent publication US20110060009A1, “Hydroxamate-Based Inhibitors of Deacetylases” (NOVARTIS AG, priority 2009, published 2011)

Amino acid sequences for entries named in this document (tags omitted).
UniProt Q13547, whole entry: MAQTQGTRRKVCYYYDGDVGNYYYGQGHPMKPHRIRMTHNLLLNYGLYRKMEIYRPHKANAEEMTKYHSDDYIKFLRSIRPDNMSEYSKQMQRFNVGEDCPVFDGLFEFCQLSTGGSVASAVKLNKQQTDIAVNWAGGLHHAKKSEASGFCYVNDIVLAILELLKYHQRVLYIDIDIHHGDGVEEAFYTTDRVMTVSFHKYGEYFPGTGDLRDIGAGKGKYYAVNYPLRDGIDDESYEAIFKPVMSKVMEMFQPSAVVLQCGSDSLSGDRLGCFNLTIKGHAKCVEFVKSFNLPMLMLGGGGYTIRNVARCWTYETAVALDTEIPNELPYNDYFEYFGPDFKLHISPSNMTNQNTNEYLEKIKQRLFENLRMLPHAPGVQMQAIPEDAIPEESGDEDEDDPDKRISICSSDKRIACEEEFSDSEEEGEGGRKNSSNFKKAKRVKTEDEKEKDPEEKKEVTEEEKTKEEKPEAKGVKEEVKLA

Assays:
HCT116 = HCT116 IC50 (Table 2, no method described); assay type: cell-based; conditions: read-out: HCT116 IC50
HDAC-1 = HDAC-1 (Homo sapiens, UniProt Q13547); test: HDAC Inhibition Assay (purified GST-HDAC protein); conditions: read-out: HDAC-1 IC50, IC50 normalized to reference inhibitor
Text: The baculovirus donor vector pFB-GSTX3 is used to generate a recombinant baculovirus that expresses the HDAC polypeptide. Transfer vectors containing the HDAC coding region are transfected into the DH10Bac cell line (GIBCO) and plated on selective agar plates. Colonies without insertion of the fusion sequence into the viral genome (carried by the bacteria) are blue. Single, white colonies are picked and viral DNAs (bacmid) are isolated from the bacteria by standard plasmid purification procedures. Sf9 cells or Sf21 (American Type Culture Collection) cells are then transfected in […] flasks with the viral DNA using Cellfectin reagent.
Virus-containing media is collected from the transfected cell culture and used for infection to increase its titer. Virus-containing media obtained after two rounds of infection is used for large-scale protein expression. For large-scale protein expression 100 cm^2 round tissue culture plates are seeded with 5×10^7 cells/plate and infected with 1 mL of virus-containing media (at an approximately MOI of 5). After 3 days, the cells are scraped off the plate and centrifuged at 500 rpm for 5 minutes. Cell pellets from 10-20, 100 cm^2 plates, are re-suspended in 50 mL of ice-cold lysis buffer (25 mM tris-HCl, pH 7.5, 2 mM EDTA, 1% NP-40, 1 mM DTT, 1 mM P MSF). The cells are stirred on ice for 15 minutes and then centrifuged at 5,000 rpms for 20 minutes.
The centrifuged cell lysate is loaded onto a 2 mL glutathione-sepharose column (Pharmacia) and is washed thrice with 10 mL of 25 mM tris-HCl, pH 7.5, 2 mM EDTA, 1 mM DTT, 200 mM NaCl. […]
HDAC assays with purified GST-HDAC protein are carried out in a final volume of 30 μL containing 15 ng of GST-HDAC protein, 20 mM tris-HCl, pH 7.5, 1 mM MnCl2, 10 mM MgCl2, 1 mM DTT, 3 μg/mL poly(Glu,Tyr) 4:1, 1% DMSO, 2.0 μM ATP (γ-[^33P]-ATP 0.1 μCi). […] Membranes are counted after drying at ambient temperature, mounting in Packard TopCount 96-well frame, and addition of 10 μL/well of MICROSCINT™ (Packard). […]
Normalized IC50=measured IC50 average ref. IC50/measured ref. IC50

SMILES | IC50 (HCT116) [nM] | IC50 (HDAC-1) [nM]
O=C(/C=C/c1ccc(CN2CCC[C@@H]2Cn2cc3ccccc3n2)cc1)NO | 9 | 7
O=C(/C=C/c1ccc(CN2CCC[C@@H]2Cn2ncc3ccccc32)cc1)NO | 1 | 1.8
Cc1[nH]c2ccccc2c1C[C@H]1C[C@H]2CCC[C@H]2N1Cc1ccc(/C=C/C(=O)NO)cc1 | 1.4 | 2
